From publication PMC8766458, “Deciphering the mechanism of processive ssDNA digestion by the Dna2-RPA ensemble” (Nature Communications, 2022)

Amino acid sequences for entries named in this document (tags omitted).
UniProt P38859, whole entry D357A/E358A/D361A/D362A/E366A: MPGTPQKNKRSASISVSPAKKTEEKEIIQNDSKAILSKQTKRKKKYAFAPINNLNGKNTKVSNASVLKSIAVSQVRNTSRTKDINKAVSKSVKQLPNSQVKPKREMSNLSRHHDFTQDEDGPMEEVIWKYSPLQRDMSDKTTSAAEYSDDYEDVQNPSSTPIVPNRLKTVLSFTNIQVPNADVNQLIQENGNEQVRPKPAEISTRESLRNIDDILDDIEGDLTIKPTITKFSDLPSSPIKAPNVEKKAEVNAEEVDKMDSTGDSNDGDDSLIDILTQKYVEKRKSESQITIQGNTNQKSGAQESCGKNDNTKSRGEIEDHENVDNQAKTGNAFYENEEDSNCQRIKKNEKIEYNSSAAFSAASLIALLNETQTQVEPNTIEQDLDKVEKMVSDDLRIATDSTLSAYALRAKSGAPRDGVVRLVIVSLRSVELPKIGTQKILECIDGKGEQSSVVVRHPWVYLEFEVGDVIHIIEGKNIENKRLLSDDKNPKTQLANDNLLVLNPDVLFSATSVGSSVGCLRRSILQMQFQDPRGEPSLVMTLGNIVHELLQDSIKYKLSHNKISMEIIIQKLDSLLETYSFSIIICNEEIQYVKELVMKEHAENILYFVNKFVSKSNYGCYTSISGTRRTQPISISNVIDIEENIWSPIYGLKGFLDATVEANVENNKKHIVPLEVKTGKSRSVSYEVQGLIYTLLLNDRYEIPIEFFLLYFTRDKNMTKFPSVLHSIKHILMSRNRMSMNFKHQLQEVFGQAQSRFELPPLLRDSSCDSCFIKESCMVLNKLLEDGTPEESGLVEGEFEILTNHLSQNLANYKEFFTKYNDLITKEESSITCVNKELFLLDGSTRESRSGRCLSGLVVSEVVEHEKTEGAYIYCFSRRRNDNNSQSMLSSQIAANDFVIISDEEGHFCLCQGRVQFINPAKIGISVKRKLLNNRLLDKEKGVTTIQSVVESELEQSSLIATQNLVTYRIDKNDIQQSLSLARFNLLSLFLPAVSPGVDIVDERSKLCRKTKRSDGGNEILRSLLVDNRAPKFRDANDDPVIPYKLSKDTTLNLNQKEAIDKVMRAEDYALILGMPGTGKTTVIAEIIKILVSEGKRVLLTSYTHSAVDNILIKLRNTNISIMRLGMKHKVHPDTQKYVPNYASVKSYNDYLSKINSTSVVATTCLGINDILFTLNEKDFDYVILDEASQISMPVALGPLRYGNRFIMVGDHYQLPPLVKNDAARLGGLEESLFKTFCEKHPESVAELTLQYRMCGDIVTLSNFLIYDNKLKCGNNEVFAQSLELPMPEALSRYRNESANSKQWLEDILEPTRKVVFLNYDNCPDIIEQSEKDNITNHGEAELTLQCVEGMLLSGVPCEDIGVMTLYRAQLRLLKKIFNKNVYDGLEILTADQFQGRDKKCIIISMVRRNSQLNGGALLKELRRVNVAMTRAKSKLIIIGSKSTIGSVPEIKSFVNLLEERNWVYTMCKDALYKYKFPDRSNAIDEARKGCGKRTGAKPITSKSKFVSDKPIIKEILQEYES
UniProt P38859, whole entry D657A: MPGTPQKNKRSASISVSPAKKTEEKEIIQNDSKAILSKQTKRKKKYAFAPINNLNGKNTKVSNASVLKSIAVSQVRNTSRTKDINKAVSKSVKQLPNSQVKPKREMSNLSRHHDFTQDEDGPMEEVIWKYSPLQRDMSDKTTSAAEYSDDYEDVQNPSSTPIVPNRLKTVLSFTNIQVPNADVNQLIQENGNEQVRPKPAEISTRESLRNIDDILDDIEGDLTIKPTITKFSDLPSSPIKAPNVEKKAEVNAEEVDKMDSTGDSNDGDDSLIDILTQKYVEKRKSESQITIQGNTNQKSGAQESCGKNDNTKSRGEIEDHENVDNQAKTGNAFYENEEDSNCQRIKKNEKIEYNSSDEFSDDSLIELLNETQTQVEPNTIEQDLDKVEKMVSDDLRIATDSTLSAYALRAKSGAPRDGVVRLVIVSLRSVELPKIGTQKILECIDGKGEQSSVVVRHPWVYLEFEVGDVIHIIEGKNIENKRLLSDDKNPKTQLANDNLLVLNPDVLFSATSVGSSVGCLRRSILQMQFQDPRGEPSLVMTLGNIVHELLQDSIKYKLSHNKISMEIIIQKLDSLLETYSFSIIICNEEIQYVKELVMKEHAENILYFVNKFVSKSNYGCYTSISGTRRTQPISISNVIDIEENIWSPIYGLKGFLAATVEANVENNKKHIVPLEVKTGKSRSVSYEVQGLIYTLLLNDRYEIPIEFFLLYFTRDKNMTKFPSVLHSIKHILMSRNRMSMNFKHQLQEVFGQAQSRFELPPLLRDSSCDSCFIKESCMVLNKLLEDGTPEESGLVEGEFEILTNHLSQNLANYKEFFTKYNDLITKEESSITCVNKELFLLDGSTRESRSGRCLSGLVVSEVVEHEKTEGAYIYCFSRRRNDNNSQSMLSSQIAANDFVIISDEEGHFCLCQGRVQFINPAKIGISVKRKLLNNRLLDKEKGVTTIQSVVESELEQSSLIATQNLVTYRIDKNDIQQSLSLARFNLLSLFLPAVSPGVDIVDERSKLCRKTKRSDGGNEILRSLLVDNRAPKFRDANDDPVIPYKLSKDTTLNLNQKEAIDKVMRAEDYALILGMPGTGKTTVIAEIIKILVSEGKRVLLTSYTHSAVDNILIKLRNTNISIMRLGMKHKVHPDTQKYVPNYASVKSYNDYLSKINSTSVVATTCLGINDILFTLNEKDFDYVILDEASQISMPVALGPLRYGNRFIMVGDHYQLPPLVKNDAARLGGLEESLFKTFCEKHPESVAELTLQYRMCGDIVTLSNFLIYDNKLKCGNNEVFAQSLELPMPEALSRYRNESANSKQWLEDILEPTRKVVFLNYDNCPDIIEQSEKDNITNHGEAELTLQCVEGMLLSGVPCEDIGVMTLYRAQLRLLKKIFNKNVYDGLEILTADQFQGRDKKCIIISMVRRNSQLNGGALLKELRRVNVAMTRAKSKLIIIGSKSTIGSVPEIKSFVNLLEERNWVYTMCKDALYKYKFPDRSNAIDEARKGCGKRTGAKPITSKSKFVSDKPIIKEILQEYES

What was measured:
[1] = biological target: T1, Dna2 (wild type, FLAG-His6-tagged) (S. cerevisiae, UniProt P38859); assay: MST; Dna2 or dna2-AC labelled with the His-tag labelling kit RED-tris-NTA, RPA titrated as ligand; 20 mM Tris-HCl pH 8.0, 150 mM NaCl, 5% glycerol, 0.01% NP-40, 1 mM β-mercaptoethanol; 30 °C; no DNA; settings: both partners purified
T1 construct: Dna2 nuclease-helicase, Saccharomyces cerevisiae, wild type; Wild-type protein; In DNA Curtains it was labelled with anti-FLAG quantum dots; in MST with the His-tag labelling kit RED-tris-NTA; also called wild-type Dna2; (His)6-tagged Dna2; source: over-expressed in yeast, purified (Ni-NTA, anti-FLAG-M2 resin)

[2] = biological target: T2, dna2-AC (dna2-D357A,E358A,D361A,D362A,E366A), FLAG-His6-tagged (S. cerevisiae, UniProt P38859, D357A | E358A | D361A | D362A | E366A); assay: as above; settings: both partners purified
T2 construct: Dna2, Saccharomyces cerevisiae, with all acidic residues of the second acidic patch (amino acid 355-366) changed to alanine; source: over-expressed in yeast, purified (Ni-NTA, anti-FLAG-M2 resin)

[3] = biological target: T3, dna2-D657A (nuclease-dead Dna2) (S. cerevisiae, UniProt P38859, D657A); assay: native gel or EMSA; ternary complex of dna2-D657A, RPA and 5 nM 5′-dT(30)-overhanging DNA (3′-overhang and gapped DNA compared); 150 mM KCl, 30 °C, 4% native gel; settings: both partners purified
T3 construct: Dna2, Saccharomyces cerevisiae, nuclease-dead version; Purified as the other Dna2 variants; FLAG tag used for quantum-dot labelling in DNA Curtains; also called dna2-D657A mutant; source: over-expressed in yeast, purified (Ni-NTA, anti-FLAG-M2 resin)

[4] = biological target: T2, dna2-AC …; assay: cell-based or functional assay

B1: RPA (yeast replication protein A, non-tagged heterotrimer) (complex, yeast (S. cerevisiae))
chain 1: MSSVQLSRGDFHSIFTNKQRYDNPTGGVYQVYNTRKSDGANSNRKNLIMISDGIYHMKALLRNQAASKFQSMELQRGDIIRVIIAEPAIVRERKKYVLLVDDFELVQSRADMVNQTSTFLDNYFSEHPNETLKDEDITDSGNVANQTNASNAGVPDMLHSNSNLNANERKFANENPNSQKTRPIFAIEQLSPYQNVWTIKARVSYKGEIKTWHNQRGDGKLFNVNFLDTSGEIRATAFNDFATKFNEILQEGKVYYVSKAKLQPAKPQFTNLTHPYELNLDRDTVIEECFDESNVPKTHFNFIKLDAIQNQEVNSNVDVLGIIQTINPHFELTSRAGKKFDRRDITIVDDSGFSISVGLWNQQALDFNLPEGSVAAIKGVRVTDFGGKSLSMGFSSTLIPNPEIPEAYALKGWYDSKGRNANFITLKQEPGMGGQSAASLTKFIAQRITIARAQAENLGRSEKGDFFSVKAAISFLKVDNFAYPACSNENCNKKVLEQPDGTWRCEKCDTNNARPNWRYILTISIIDETNQLWLTLFDDQAKQLLGVDANTLMSLKEEDPNEFTKITQSIQMNEYDFRIRAREDTYNDQSRIRYTVANLHSLNYRAEADYLADELSKALLA
chain 2: MATYQPYNEYSSVTGGGFENSESRPGSGESETNTRVNTLTPVTIKQILESKQDIQDGPFVSHNQELHHVCFVGVVRNITDHTANIFLTIEDGTGQIEVRKWSEDANDLAAGNDDSSGKGYGSQVAQQFEIGGYVKVFGALKEFGGKKNIQYAVIKPIDSFNEVLTHHLEVIKCHSIASGMMKQPLESASNNNGQSLFVKDDNDTSSGSSPLQRILEFCKKQCEGKDANSFAVPIPLISQSLNLDETTVRNCCTTLTDQGFIYPTFDDNNFFAL
chain 3: MASETPRVDPTEISNVNAPVFRIIAQIKSQPTESQLILQSPTISSKNGSEVEMITLNNIRVSMNKTFEIDSWYEFVCRNNDDGELGFLILDAVLCKFKENEDLSLNGVVALQRLCKKYPEIY
notes: Rfa1, large subunit of yeast RPA; Rfa2, middle subunit of yeast RPA; Rfa3, small subunit of yeast RPA; RFA1, RFA2 and RFA3 in pET11c, construct from the Finkelstein lab; non-tagged; also called wild-type RPA; source: E. coli BL21 codon plus, purified (Affi-Gel Blue, hydroxyapatite, Superdex 200, Mono Q); copies: + +
In the case of B1, the Kd [1] is reported as 185 ± 7 nM, the Kd [2] is reported as 805 ± 22 nM and the binding result [3] is reported as “binds”. The “fold decrease in digestion of long ssDNA (562 nt) under various concentrations of RPA, dna2-AC against Dna2 (Fig. 7a)” value [4] was 3 fold and the “stimulation by RPA of the initial 5′-cleavage, dna2-AC against wild-type Dna2 (Supplementary Fig. 7a)” value [4] was roughly 2 fold.
